# Reference: article PMC2749987 (2009)
# Protein sequences, listed by entry. Tags and fused reporters are not part of them. Residues count along the entry.
# UniProt P28335, 33-458: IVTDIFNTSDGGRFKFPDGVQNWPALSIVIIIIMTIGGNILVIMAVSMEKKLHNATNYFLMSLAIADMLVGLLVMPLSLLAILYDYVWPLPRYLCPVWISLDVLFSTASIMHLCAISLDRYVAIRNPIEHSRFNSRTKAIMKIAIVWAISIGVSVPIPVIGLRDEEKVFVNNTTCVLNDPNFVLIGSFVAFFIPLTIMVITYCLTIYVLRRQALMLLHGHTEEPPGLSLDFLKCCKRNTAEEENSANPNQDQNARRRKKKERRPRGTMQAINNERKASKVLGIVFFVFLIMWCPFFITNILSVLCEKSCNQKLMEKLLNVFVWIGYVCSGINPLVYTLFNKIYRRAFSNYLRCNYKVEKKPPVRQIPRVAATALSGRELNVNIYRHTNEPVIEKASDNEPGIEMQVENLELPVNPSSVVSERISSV
# Molecular target: human 5-HT2C receptor (Homo sapiens, UniProt P28335)
# Conditions: read-out: KD of radioligand at 5-HT2C receptors; saturation binding
substance,measurement,value
[^3H]-Mesulergine [reference compound],Kd,0.88 ± 0.03 nM
